The values below come from patent publication US9440982B2 (Eolas Therapeutics, Inc., priority 2012, dated 2016).

The chains behind the UniProt entries cited, without tags or fusion partners.
UniProt O43614, whole entry: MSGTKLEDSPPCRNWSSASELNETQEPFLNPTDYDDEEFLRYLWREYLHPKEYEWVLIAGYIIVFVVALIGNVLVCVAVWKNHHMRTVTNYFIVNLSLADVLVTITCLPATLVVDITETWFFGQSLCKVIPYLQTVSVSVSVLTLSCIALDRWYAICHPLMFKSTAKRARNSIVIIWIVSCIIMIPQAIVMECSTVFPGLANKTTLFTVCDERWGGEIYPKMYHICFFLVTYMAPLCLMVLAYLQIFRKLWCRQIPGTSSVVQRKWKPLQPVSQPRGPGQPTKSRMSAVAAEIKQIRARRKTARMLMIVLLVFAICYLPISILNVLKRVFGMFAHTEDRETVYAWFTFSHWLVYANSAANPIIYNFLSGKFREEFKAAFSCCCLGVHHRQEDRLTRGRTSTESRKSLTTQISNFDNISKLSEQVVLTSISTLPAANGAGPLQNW

The target in the first assay is T1, OX2 (Homo sapiens, UniProt O43614).
T1 construct: expressed in transfected cells; host or cells: CHO (CHO-OX2, kept under selection antibiotic)
The assay can be described thus: Orexin receptor cell-based functional assay, [Ca2+]i by FLIPR, CHO-OX2 cells. The conditions noted are these: CHO-OX2 cells, [Ca2+]i by FLIPR, antagonist dose-range 0.1 nM-10 μM, EC90 of OXA; read-out: OX2.
`Cc1ccc(-c2cnn(C)c2)c(C(=O)N2CCC[C@@H](C)[C@H]2CNc2ncccc2C)c1` [Example A100, ((2S,3R)-3-Methyl-2-(((3-methylpyridin-2-yl)amino)methyl)piperidin-1-yl)(5-methyl-2-(1-methyl-1H-pyrazol-4-yl)phenyl)methanone]: the IC50 came out at 1200 nM.
Still for that read-out and setting: under `Cc1ccc(-c2cnn(C)c2)c(C(=O)N2CCC[C@@H](C)[C@H]2CNc2cccc(C)n2)c1` [Example A87, ((2S,3R)-3-Methyl-2-(((6-methylpyridin-2-yl)amino)methyl)piperidin-1-yl)(5-methyl-2-(1-methyl-1H-pyrazol-4-yl)phenyl)methanone] stands greater than 4000 nM; under `COc1ccc(NC[C@@H]2[C@H](C)CCCN2C(=O)c2cc(C)ccc2-n2nccn2)nc1` [Example A126, ((2S,3R)-2-(((5-Methoxypyridin-2-yl)amino)methyl)-3-methylpiperidin-1-yl)(5-methyl-2-(2H-1,2,3-triazol-2-yl)phenyl)methanone], greater than 5000 nM; under `Cc1ccc(-n2nccn2)c(C(=O)N2CCC[C@@H](C)[C@H]2CNc2ncc(F)cc2F)c1` [Example A172, ((2S,3R)-2-(((3,5-Difluoropyridin-2-yl)amino)methyl)-3-methylpiperidin-1-yl)(5-methyl-2-(2H-1,2,3-triazol-2-yl)phenyl)methanone], greater than 5000 nM.
Still for that read-out and setting: as for `C[C@@H]1CCCN(C(=O)c2c(-n3nccn3)ccc(F)c2F)[C@@H]1CNc1ccc(C(F)(F)F)cn1` [Example A336, (2,3-Difluoro-6-(2H-1,2,3-triazol-2-yl)phenyl)((2S,3R)-3-methyl-2-(((5-(trifluoromethyl)pyridin-2-yl)amino)m*ethyl)piperidin-1-yl)methanone], the figure is greater than 5000 nM.
As to `Cc1ccc(-c2cnn(C)c2)c(C(=O)N2CCC[C@@H](C)[C@H]2CNc2ccc(F)cn2)c1` [Example A44, ((2S,3R)-2-(((5-Fluoropyridin-2-yl)-amino)methyl)-3-methylpiperidin-1-yl)(5-methyl-2-(1-methyl-1H-pyrazol-4-yl)phenyl)methanone], the IC50 is greater than 5000 nM.
Take `C[C@@H]1CCCN(C(=O)c2cc(Cl)ccc2-c2ncccn2)[C@@H]1CNc1ncc(C(F)(F)F)cn1` [Example A201, (5-Chloro-2-(pyrimidin-2-yl)phenyl)((2S,3R)-3-methyl-2-(((5-(trifluoromethyl)pyrimidin-2-yl)amino)methyl)piperidin-1-yl)methanone]: the IC50 was 2800 nM.
As to `C[C@@H]1CCCN(C(=O)c2cc(Cl)ccc2-c2ncccn2)[C@@H]1CNc1ccc(C(F)(F)F)nn1` [Example A200, (5-Chloro-2-(pyrimidin-2-yl)phenyl)((2S,3R)-3-methyl-2-(((6-(trifluoromethyl)pyridazin-3-yl)amino)methyl)piperidin-1-yl)methanone], the IC50 is greater than 5000 nM.
Same read-out and setting: as for `Cc1ccc(-n2nccn2)c(C(=O)N2CCC[C@@H](C)[C@H]2CNc2ccc(C(F)(F)F)cn2)c1F` [Example A318, (2-Fluoro-3-methyl-6-(2H-1,2,3-triazol-2-yl)phenyl)((2S,3R)-3-methyl-2-(((5-(trifluoromethyl)pyridin-2-yl)amino)methyl)piperidin-1-yl)methanone], the figure is 2500 nM; as for `Cc1cccc(-c2ncccn2)c1C(=O)N1CCC[C@@H](C)[C@H]1CNc1ncc(C(F)(F)F)cn1` [Example A307, ((2S,3R)-3-Methyl-2-(((5-(trifluoromethyl)pyrimidin-2-yl)amino)methyl)piperidin-1-yl)(2-methyl-6-(pyrimidin-2-yl)phenyl)methanone], greater than 5000 nM.
Still for that read-out and setting: under `C[C@@H]1CCCN(C(=O)c2ccccc2-n2nccn2)[C@@H]1CNc1nc2cc(Cl)ccc2o1` [Example A219, (2-(2H-1,2,3-Triazol-2-yl)phenyl)((2S,3R)-2-(((5-chlorobenzo[d]oxazol-2-yl)amino)methyl)-3-methylpiperidin-1-yl)methanone] stands greater than 5000 nM.
Still for that read-out and setting: under `COc1ccnc(-c2ccc(C)cc2C(=O)N2CCC[C@@H](C)[C@H]2CNc2ccc(C(F)(F)F)cn2)n1` [Example A21, (2-(4-Methoxypyrimidin-2-yl)-5-methylphenyl)((2S,3R)-3-methyl-2-(((5-(trifluoromethyl)pyridin-2-yl)amino)methyl)piperidin-1-yl)methanone] stands greater than 4000 nM; under `Cc1ccc(-n2cccn2)c(C(=O)N2CCC[C@@H](C)[C@H]2CNc2ccc(C#N)cn2)c1` [Example A155, 6-((((2S,3R)-3-Methyl-1-(5-methyl-2-(1H-pyrazol-1-yl)benzoyl)piperidin-2-yl)methyl)amino)nicotinonitrile], greater than 5000 nM.
On to `C[C@@H]1CCCN(C(=O)c2c(F)cccc2-n2nccn2)[C@@H]1CNc1ncc(Cl)cn1` [Example A260, ((2S,3R)-2-(((5-Chloropyrimidin-2-yl)amino)methyl)-3-methylpiperidin-1-yl)(2-fluoro-6-(2H-1,2,3-triazol-2-yl)phenyl)methanone], for which the IC50 was greater than 5000 nM.
The same measure, in the same setting: under `Cc1cccc(C(=O)N2CCC[C@@H](C)[C@H]2CNc2ncc(C(F)(F)F)cn2)c1-n1nccn1` [Example A267, ((2S,3R)-3-Methyl-2-(((5-(trifluoromethyl)pyrimidin-2-yl)amino)methyl)piperidin-1-yl)(3-methyl-2-(2H-1,2,3-triazol-2-yl)phenyl)methanone] stands 2600 nM; under `Cc1ccc(-c2ccccn2)c(C(=O)N2CCC[C@@H](C)[C@H]2CNc2nc3cc(Cl)ccc3o2)n1` [Example A199, ((2S,3R)-2-(((5-Chlorobenzo[d]oxazol-2-yl)amino)methyl)-3-methylpiperidin-1-yl)(6′-methyl-[2,3′-bipyridin]-2′-yl)methanone], 2600 nM; under `Cc1ccc(-n2nccn2)c(C(=O)N2CCC[C@@H](C)[C@H]2CNc2ncc(Cl)cc2F)c1` [Example A92, ((2S,3R)-2-(((5-Chloro-3-fluoropyridin-2-yl)amino)methyl)-3-methylpiperidin-1-yl)(5-methyl-2-(2H-1,2,3-triazol-2-yl)phenyl)methanone], greater than 5000 nM.
With `Cc1ccc(-c2cccnn2)c(C(=O)N2CCC[C@@H](C)[C@H]2CNc2ccc(C(F)(F)F)cn2)c1` [Example A197, ((2S,3R)-3-methyl-2-(((5-(trifluoromethyl)pyridin-2-yl)amino)methyl)piperidin-1-yl)(5-methyl-2-(pyridazin-3-yl)phenyl)methanone], the IC50 was greater than 5000 nM.

The assay is the same for the next values; noted with them: Table 2; CHO-OX2 cells, EC90 of OXA; read-out: IC50 Bioactivity OX2.
For `CC[C@@H]1CCCN(C(=O)c2nc(C)sc2-c2ccc(F)cc2)[C@@H]1CNc1ccc(C(F)(F)F)cn1` (racemic) [Example 76, rac-cis-(3-Ethyl-2-(((5-(trifluoromethyl)pyridin-2-yl)amino)methyl)piperidin-1-yl)(5-(4-fluorophenyl)-2-methylthiazol-4-yl)methanone], the IC50 is greater than 4000 nM.
Same read-out and setting: under `CO[C@@H]1CCCN(C(=O)c2nc(C)sc2-c2ccc(F)cc2)[C@@H]1CNc1ncc(Cl)cn1` (racemic) [Example 93, rac-cis-(2-(((5-Chloropyrimidin-2-yl)amino)methyl)-3-methoxypiperidin-1-yl)(5-(4-fluorophenyl)-2-methylthiazol-4-yl)methanone] stands greater than 1000 nM; under `O=C(NCC1CCC(F)CN1C(=O)c1ccccc1-c1ccccc1)c1cccc2cccnc12` (single isomer, unassigned) [Example 37, N-((1-(Biphenylcarbonyl)-5-fluoropiperidin-2-yl)methyl)quinoline-8-carboxamide], 3 nM; under `Cc1nc(C(=O)N2CCC[C@@H](C)[C@H]2CNC(=O)c2cccc3occc23)c(-c2ccc(F)cc2)s1` (racemic) [Example 63, rac-cis-N-((1-(5-(4-Fluorophenyl)-2-methylthiazole-4-carbonyl)-3-methylpiperidin-2-yl)methyl)benzofuran-4-carboxamide], 48 nM.
On to `Cc1ccc(-c2ncco2)c(C(=O)N2CCC[C@@H](C)[C@H]2CNc2ccc(C(F)(F)F)cn2)c1` (racemic) [Example 113, rac-cis-(3-Methyl-2-(((5-(trifluoromethyl)pyridin-2-yl)amino)methyl)piperidin-1-yl)(5-methyl-2-(oxazol-2-yl)phenyl)methanone], for which the IC50 came out at 190 nM.
As to `Cc1nc(C(=O)N2CCC[C@@H](C(F)(F)F)[C@H]2CNc2ccc(C(F)(F)F)cn2)c(-c2ccccc2)s1` (racemic) [Example 14, rac-cis-(2-Methyl-5-phenylthiazol-4-yl)(3-(trifluoromethyl)-2-(((5-(trifluoromethyl)pyridin-2-yl)amino)methyl)piperidin-1-yl)methanone], the IC50 was found to be 460 nM.
For `Cc1ccc(-n2cncn2)c(C(=O)N2CCC[C@@H](C)[C@H]2CNc2ccc(C(F)(F)F)cn2)c1` (racemic) [Example 117, rac-cis-(3-Methyl-2-(((5-(trifluoromethyl)pyridin-2-yl)amino)methyl)piperidin-1-yl)(5-methyl-2-(1H-1,2,4-triazol-1-yl)phenyl)methanone], the IC50 was greater than 10000 nM.
On the same count and under the same terms, under `Cc1ccc(-n2ccnn2)c(C(=O)N2CCC[C@@H](C)[C@H]2CNc2ccc(C(F)(F)F)cn2)c1` (racemic) [Example 115, rac-cis-(3-Methyl-2-(((5-(trifluoromethyl)pyridin-2-yl)amino)methyl)piperidin-1-yl)(5-methyl-2-(1H-1,2,3-triazol-1-yl)phenyl)methanone] stands greater than 10000 nM.
On the same count and under the same terms, as for `Cc1nc(C(=O)N2CCC[C@@H](C)[C@H]2COc2ccc(C(F)(F)F)cn2)c(-c2ccc(F)cc2)s1` (racemic) [Example 79, rac-cis-(3-Methyl-2-(((5-(trifluoromethyl)pyridin-2-yl)oxy)methyl)piperidin-1-yl)(5-(4-fluorophenyl)-2-methylthiazol-4-yl)methanone], the figure is greater than 10000 nM.
In the case of `Cc1ccc(-c2ccncc2)c(C(=O)N2CCC[C@@H](C)[C@H]2CNc2ccc(C(F)(F)F)cn2)c1` (racemic) [Example 106, rac-cis-(3-Methyl-2-(((5-(trifluoromethyl)pyridin-2-yl)amino)methyl)piperidin-1-yl)(5-methyl-2-(pyridin-4-yl)phenyl)methanone], the IC50 was greater than 1000 nM.
